In patent publication US8779142B2, “Azabicyclo compound and salt thereof” (Taiho Pharmaceutical Co., Ltd., priority 2009, dated 2014):

Target: human HSP90 alpha protein (HSP90 N-terminal protein, amino acids 2-236) (Homo sapiens (Human), UniProt P07900)
Assay: Measurement of HSP90-binding activity (AlphaScreen competitive assay, biotin-labeled geldanamycin)
Conditions: concentration inhibiting binding of biotin-labeled geldanamycin (40 nM) to purified HSP90 to 50% of control; read-out: HSP-binding activity IC50

| Structure (SMILES) | IC50 |
| --- | --- |
| COc1ccc(-c2ccnc3c2c(C(C)C)nn3-c2ccc(C(N)=O)c(N[C@H]3CC[C@H](O)CC3)c2)cn1 [Example 18, 2-(Trans-4-hydroxycyclohexylamino)-4-{3-isopropyl-4-(6-methoxypyridin-3-yl)-1H-pyrazolo[3,4-b]pyridin-1-yl}benzamide] | 3010 nM |
| CC(C)c1nn(-c2ccc(C(N)=O)c(N[C@H]3CC[C@H](O)CC3)c2)c2nccc(-c3cnc4ccccc4c3)c12 [Example 6, 2-(Trans-4-hydroxycyclohexylamino)-4-{3-isopropyl-4-(quinolin-3-yl)-1H-pyrazolo[3,4-b]pyridin-1-yl}benzamide] | 150 nM |
| Cc1cn(-c2ccc(C(N)=O)c(N[C@H]3CC[C@H](N)CC3)c2)c2nccc(-c3cnc4ccccc4c3)c12 [Example 61, 2-(Trans-4-aminocyclohexylamino)-4-{3-methyl-4-(quinolin-3-yl)-1H-pyrrolo[2,3-b]pyridin-1-yl}benzamide] | 600 nM |
| Cc1cn(-c2ccc(C(N)=O)c(S[C@H]3CC[C@H](O)CC3)c2)c2nccc(-c3cnc4ccccc4c3)c12 [Example 67, 2-(Trans-4-hydroxycyclohexylthio)-4-{3-methyl-4-(quinolin-3-yl)-1H-pyrrolo[2,3-b]pyridin-1-yl}benzamide] | 360 nM |
